Source: ChEMBL document CHEMBL1148459, “1-alkyl-4-acylpiperazines as a new class of imidazole-free histamine H(3) receptor antagonists” (J Med Chem, 2004)

The chains behind the UniProt entries cited, without tags or fusion partners. Where a name states a change or a piece, a line headed by the entry shows the natural chain unless it says otherwise.
UniProt Q9Y5N1: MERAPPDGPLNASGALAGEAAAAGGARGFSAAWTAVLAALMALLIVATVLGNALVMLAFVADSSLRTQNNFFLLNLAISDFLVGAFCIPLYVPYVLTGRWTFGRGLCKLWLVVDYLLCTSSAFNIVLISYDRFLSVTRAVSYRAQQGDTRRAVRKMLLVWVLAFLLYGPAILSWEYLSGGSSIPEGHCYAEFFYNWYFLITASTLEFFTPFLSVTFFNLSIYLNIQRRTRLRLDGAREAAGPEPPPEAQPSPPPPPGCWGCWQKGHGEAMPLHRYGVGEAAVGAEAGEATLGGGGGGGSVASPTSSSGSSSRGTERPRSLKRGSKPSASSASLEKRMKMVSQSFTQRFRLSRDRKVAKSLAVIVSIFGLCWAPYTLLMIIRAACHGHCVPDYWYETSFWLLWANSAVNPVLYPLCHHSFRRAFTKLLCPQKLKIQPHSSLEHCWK

Target: Histamine H3 receptor (Homo sapiens, UniProt Q9Y5N1)
Test: Antagonist potency against human histamine H3 receptor expressed in CHO cells was determined by GTPgamma-S-assay
Format: functional, cell-based

For `NC(=NCc1ccc(Cl)cc1)SCCCc1cnc[nH]1` [CLOBENPROPIT], the Ki was 0.58 nM.
